Values quoted from earlier work as cited in US5744485A, “Carbamates and ureas as modifiers of multi-drug resistance” (Vertex Pharmaceuticals Incorporated, priority 1995, dated 1998).

Conditions: Hait et al.; cited from earlier work

11-methyl-leucine cyclosporin [11-met-leu CsA]
immunosuppression: do not exert an immunosuppressive effect
